According to patent US7163946B2 (Ligand Pharmaceuticals Incorporated, priority 2002, dated 2007):

Target: T1, hPR (Homo sapiens, UniProt P06401)
T1 sequence (P06401 1-933): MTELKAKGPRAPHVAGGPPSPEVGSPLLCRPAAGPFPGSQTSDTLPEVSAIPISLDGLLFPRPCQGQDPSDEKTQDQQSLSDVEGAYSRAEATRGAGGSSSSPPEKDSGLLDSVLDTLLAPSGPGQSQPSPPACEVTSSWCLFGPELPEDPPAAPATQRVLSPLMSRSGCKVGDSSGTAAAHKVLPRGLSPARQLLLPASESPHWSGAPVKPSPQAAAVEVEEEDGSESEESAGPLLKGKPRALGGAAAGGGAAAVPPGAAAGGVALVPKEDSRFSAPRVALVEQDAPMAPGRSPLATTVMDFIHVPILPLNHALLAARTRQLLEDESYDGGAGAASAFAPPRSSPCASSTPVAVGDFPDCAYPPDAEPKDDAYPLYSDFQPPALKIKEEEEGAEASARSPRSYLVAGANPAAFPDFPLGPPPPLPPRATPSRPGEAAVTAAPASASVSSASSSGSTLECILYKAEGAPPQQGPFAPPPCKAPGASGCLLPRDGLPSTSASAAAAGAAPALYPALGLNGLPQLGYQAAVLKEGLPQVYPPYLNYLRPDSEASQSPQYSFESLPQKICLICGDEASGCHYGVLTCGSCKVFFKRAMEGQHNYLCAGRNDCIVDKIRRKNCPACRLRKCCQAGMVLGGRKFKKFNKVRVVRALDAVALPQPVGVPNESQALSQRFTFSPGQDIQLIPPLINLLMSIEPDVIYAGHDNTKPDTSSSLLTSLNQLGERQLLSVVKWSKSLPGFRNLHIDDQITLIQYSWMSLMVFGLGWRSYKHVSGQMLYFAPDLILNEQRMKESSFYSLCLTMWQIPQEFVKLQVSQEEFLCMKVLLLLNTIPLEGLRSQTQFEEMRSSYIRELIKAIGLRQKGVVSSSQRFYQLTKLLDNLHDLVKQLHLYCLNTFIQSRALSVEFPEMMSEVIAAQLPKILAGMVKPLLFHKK
Assay: hPR cotransfection assay in CV-1 cells, agonist mode
Type: cell-based
Conditions: Tables 3 and 4, values without footnote; read-out: hPR agonist potencies (EC50 in nM) in the cotransfection assay

EC50: 9 nM
Structure (SMILES): CCCCC1Oc2ccc(OC)cc2-c2ccc3c(c21)C(C)=CC(C)(C)N3 (stereo not shown) [Formula I X=9-OMe Bu, reference compound]
